Consider one substance from patent publication US10577395B2 (priority 2014, dated 2020).

This test has as its system vancomycin-sensitive Staphylococcus aureus (VSSA strain ATCC 25923). The experiment in a line: Antimicrobial assay, MIC, vancomycin-sensitive S. aureus. The format is cell-based. As for the experimental part:
Assays were carried out following the methods of Clinical and Laboratory Standards Institute; Methods for Dilution Antimicrobial Susceptibility Tests for Bacteria That Grow Aerobically; Approved Standard, […].; CLSI document M07-A8; Clinical and Laboratory Standards Institute: Wayne, Pa., 2009.
This diluted bacterial stock solution was then inoculated into a well of a V-shaped 96-well glass coated microtiter plate, supplemented with serial diluted aliquots of the antibiotic solution DMSO (4 μL), to achieve a total assay volume of 0.1 mL. The plate was then incubated at 37° C. for 18 hours, after which minimal inhibitory concentrations (MICs) were determined by monitoring the cell growth (observed as a pellet) in the wells. The lowest concentration of antibiotic (in μg/mL) capable of eliminating the cell growth in the wells is reported as the MIC.

For the substance “CBP-[Ψ[CH2NH]Tpg^4]vancomycin [Compound 17]”, the “MIC, sensitive S. aureus” value was 0.5 µg/mL. Moreover, where the note is “10%”, the “MIC, sensitive S. aureus, serum concentration 10%” value was found to be 0.5 µg/mL. Also, the “MIC, sensitive S. aureus, serum concentration 25%” value (25%) worked out at 1 µg/mL. The “MIC, sensitive S. aureus, serum concentration 100%” value (100%) amounted to 2 µg/mL.
